# Reference: PubChem BioAssay AID624151 (Broad Institute, 2012)
# The list shows a part of the results, in another mix than the full data. Some structures show a salt or complex split into parts, the way the source records it. Calls of active or inactive are those of the source. Cut-off read from the data, not from the text of the source: active = activation above about 52%; inconclusive = no clear call, values can overlap the other calls; inactive = below that.
# Experiment: mutant p53 pathway re-activators, primary screen, cell-based, SW480, luciferase, single point, HTS (AID 624151)
# Conditions: SW480 PUMA-promoter luciferase, p53 mutant reactivation; at 9.98 µM; active compounds read high
row,Compound,activation
1,C/C1=C2N=C(/C=C3N=C(/C(C)=C4\[N-][C@@](C)([C@@H]5N=C1[C@](C)(CCC(=O)NCC(C)OP(=O)(O)O[C@@H]1[C@H](O)[C@H](n6cnc7cc(C)c(C)cc76)O[C@H]1CO)[C@H]5CC(N)=O)[C@@](C)(CC(N)=O)[C@@H]4CCC(N)=O)[C@@](C)(CC(N)=O)[C@@H]\3CCC(N)=O)C(C)(C)[C@@H]/2CCC(N)=O.[C-]#N.[Co+3] (some centres not stated),inactive: 5.86%
2,C/C1=C2N=C(/C=C3N=C(/C(C)=C4\[N-][C@@](C)([C@@H]5N=C1[C@](C)(CCC(=O)NC[C@@H](C)OP(=O)(O)O[C@H]1[C@@H](O)[C@@H](n6cnc7cc(C)c(C)cc76)O[C@@H]1CO)[C@H]5CC(N)=O)[C@@](C)(CC(N)=O)[C@@H]4CCC(N)=O)[C@@](C)(CC(N)=O)[C@@H]\3CCC(N)=O)C(C)(C)[C@@H]/2CCC(N)=O.[C-]#N.[Co+3],inactive: -13.7%
